{"sequences": {"note": "Protein sequences, listed by entry. Tags and fused reporters are not part of them. Residues count along the entry.", "UniProt P06873, 106-384": "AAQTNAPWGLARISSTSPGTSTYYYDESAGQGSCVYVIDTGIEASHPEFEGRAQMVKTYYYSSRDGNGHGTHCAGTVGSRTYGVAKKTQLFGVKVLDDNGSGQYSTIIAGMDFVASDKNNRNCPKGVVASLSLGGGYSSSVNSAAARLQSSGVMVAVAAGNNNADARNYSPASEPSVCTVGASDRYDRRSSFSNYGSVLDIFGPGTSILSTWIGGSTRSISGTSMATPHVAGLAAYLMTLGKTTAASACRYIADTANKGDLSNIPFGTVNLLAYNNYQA"}, "source": "paper PMC10048853", "about": "“A Study on the Interactions of Proteinase K with Myricetin and Myricitrin by Multi-Spectroscopy and Molecular Modeling” (International Journal of Molecular Sciences, 2023)", "biological_target": "T1, proteinase K (PK) (Parengyodontium album, UniProt P06873)", "T1 construct": "It is a single-chain protein consisting of 279 amino acid residues and has a molecular weight of 28,930 Da; purchased Jiuding Chemicals (Shanghai, China)", "assay": "Fluorescence quenching of proteinase K by MYR/MYT (Stern–Volmer, double-logarithmic and Van't Hoff analysis)", "format": "binding, Tritirachium album limber", "conditions": "double logarithmic equation", "description": "Fluorescence spectroscopy is an effective method used to investigate conformational changes of proteins and binding parameters of ligands to fluorophore residues of proteins such as Trp, Tyr or Phe. PK contains two Trp residues (Trp8 and Trp212), which make it possible to emit fluorescence. The fluorescence emission intensity of PK decreases gradually when MYR or MYT interacts with PK. The process by which this phenomenon occurs is called fluorescence quenching, which is the result of the altered microenvironment of PK. To eliminate the interference of fluorescence quenching from the inner filter effect, the experiments were corrected for fluorescence intensity using Equation (1). (1) Fcorr=Fobs×e^(Aex+Aem)/2 where Fcorr and Fobs are the fluorescence emission intensity values of the corrected and pre-corrected systems, respectively. Aex and Aem are the UV–Vis absorption intensities of quencher and PK at excitation and emission wavelengths, respectively.\nTo investigate the differences in the fluorescence quenching patterns of the PK-MYR and PK-MYT complexes, the Stern–Volmer equation (Equation (2)) was used for analysis. (2) F0/F=1+Kqτ0[Q]=1+Ksv[Q] where F and F0 are the fluorescence emission intensities of PK in the presence or absence of the quencher (MYR or MYT), respectively, [Q] is the concentration of the quencher, Ksv is the ratio of the bimolecular quenching model constant to the single-molecule decay rate constant, namely, the Stern–Volmer equation quenching constants, Kq is the fluorescence quenching rate constant, and τ0 is the average lifetime of the fluorescent molecule when no quencher is added, while the average lifetime of biological macromolecules is 1 × 10^−^8 s.\nFluorescence quenching could be categorized into two processes, namely dynamic quenching and static quenching. Dynamic quenching occurs when the quencher collides with biological macromolecules, while static quenching is caused by the formation of complexes. […]\nThe binding constants and the number of binding sites can be calculated by using a double logarithmic equation [20, 21] […]"}
{"substance": "Myricitrin [MYT]", "values": [{"measurement": "binding constant KA", "setting": "T 290 K", "value": "8.78 10^4 L·mol^−1"}, {"measurement": "binding constant KA", "setting": "T 300 K", "value": "2.43 10^4 L·mol^−1"}, {"measurement": "binding constant KA", "setting": "T 310 K", "value": "0.53 10^4 L·mol^−1"}]}
